Results: ChEMBL document CHEMBL1141296, “Brunneins A-C, beta-carboline alkaloids from Cortinarius brunneus” (J Nat Prod, 2007)

Target: T1, Acetylcholinesterase (Bos taurus, UniProt P23795)
T1 sequence (P23795 whole entry): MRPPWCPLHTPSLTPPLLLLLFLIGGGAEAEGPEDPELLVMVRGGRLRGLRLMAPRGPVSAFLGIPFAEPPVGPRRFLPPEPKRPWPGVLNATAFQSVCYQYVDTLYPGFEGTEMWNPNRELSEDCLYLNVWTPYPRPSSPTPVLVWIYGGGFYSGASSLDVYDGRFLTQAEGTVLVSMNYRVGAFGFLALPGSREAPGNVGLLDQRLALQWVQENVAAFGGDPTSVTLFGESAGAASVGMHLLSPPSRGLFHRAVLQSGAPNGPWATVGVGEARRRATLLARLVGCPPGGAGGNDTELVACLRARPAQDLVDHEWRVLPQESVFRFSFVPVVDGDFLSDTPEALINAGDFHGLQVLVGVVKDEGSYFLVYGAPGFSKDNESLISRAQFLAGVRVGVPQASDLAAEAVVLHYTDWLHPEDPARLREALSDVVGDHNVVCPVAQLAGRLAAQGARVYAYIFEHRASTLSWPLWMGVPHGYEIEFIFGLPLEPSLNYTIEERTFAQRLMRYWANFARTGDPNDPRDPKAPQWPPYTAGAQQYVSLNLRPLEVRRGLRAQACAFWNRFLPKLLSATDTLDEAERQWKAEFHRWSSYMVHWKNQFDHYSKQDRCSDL
Experiment: Inhibition of bovine AChE at 100 uM by Ellman's method

With `CNC(=O)Oc1ccc2c(c1)[C@]1(C)CCN(C)[C@@H]1N2C` the IC50 was 63.3 µM.
